Consider two compounds from patent US11597737B2, “Small molecule inhibitors selective for polo-like kinase proteins” (UNIVERSITY OF SOUTH CAROLINA, priority 2016, dated 2023).

Sequences of proteins named here, by UniProt entry; tags and fusion partners are left off. Residues count along the entry.
UniProt P53350, 367-603 limits assumed: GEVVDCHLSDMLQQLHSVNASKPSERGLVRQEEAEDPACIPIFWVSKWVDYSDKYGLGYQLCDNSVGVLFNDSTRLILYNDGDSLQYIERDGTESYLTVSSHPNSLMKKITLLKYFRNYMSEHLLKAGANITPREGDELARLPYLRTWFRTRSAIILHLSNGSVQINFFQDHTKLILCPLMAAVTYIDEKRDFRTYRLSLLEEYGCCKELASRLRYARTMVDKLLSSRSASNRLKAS

Molecules are shown by their SMILES.

One experiment deals with PLK1 PBD (367-603) (Homo sapiens, UniProt P53350). Kind of experiment: Fluorescence polarization assay, PLK1 PBD. Type of experiment: binding.
The subject of experiment [1] is HeLa cervical cancer cells. Kind of experiment: Cell viability assay (MTT), HeLa. Type of experiment: cell-based. Conditions: read-out: HeLa, 72 hours.

Consider `CCCCCCCCc1ccc(CNc2cc(C)ccc2C(=O)O)cc1`, for which the “fold loss in binding” value at PLK1 PBD (367-603) (relative to SCCP ID No: 5953) is given as 2 fold. Besides, on PLK1 PBD (367-603) (relative to SCCP ID No: 5961), the “fold increase in PLK1 binding” value was “more than 27 fold”.

Turning to `CCCCCCCCc1ccc(C(=O)Nc2cc(C)ccc2C(=O)O)cc1`, the IC50 came out at 3.99 µM at PLK1 PBD (367-603) (read-out: PLK1 IC50, PLK1 PBD binding, fluorescence polarization) and 17.9 µM in experiment [1].
